This assay addresses T1, human P2X4 receptor (Homo sapiens, UniProt Q99571).
T1 sequence (Q99571 1-388): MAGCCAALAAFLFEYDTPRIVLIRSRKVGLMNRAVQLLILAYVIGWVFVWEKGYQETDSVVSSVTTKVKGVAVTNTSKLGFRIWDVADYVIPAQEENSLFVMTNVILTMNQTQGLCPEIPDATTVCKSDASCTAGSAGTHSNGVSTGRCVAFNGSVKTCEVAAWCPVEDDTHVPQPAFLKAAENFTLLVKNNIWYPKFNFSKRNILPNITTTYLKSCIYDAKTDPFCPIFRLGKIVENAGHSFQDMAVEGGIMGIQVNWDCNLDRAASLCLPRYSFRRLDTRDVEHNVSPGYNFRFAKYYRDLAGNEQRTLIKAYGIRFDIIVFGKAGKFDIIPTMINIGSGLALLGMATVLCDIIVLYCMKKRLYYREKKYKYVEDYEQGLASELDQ
Nature of the assay: P2X4 receptor antagonist activity, ATP-induced intracellular calcium (Fura-2 AM) in 1321N1 cells stably expressing human P2X4 receptor. Format: cell-based.

These results are taken from US10472333B2, “P2X4 receptor antagonist” (NIPPON CHEMIPHAR CO., LTD., priority 2013, dated 2019).

Like-named read-outs stand apart in the source and are kept apart here.

In the case of `CN(C)c1ncccc1C(=O)Nc1ccc(C2=NCC(=O)Nc3c2ccc2ccccc32)cc1.Cl.Cl` [Example 15, 2-(Dimethylamino)-N-[4-(2-oxo-2,3-dihydro-1H-naphtho[1,2-e][1,4]diazepin-5-yl)phenyl]nicotinamide dihydrochloride], the IC50 (as a rule, the concentration needed to halve the response being measured) was 880 nM. Further, the “selectivity for the P2X4 receptor” value (P2X4 versus P2X3 and P2X7 receptors, Table 11) is listed as “high selectivity”. Also, for the setting “read-out: Inhibition of agonist-induced Ca^2+ influx (IC50), Human P2X4”, the half-maximal inhibitory concentration (IC50) came to 880 nM.
